Molecular target: 5-hydroxytryptamine receptor 1A (Rattus norvegicus, UniProt P19327)
Experiment: Binding affinity against 5-hydroxytryptamine 1A receptor in rat hippocampus membranes using [3H]8-OH-DPAT as radioligand
Assay type: cell membranes, Membrane

Sequences of proteins named here, by UniProt entry; tags and fusion partners are left off.
UniProt P19327, whole entry: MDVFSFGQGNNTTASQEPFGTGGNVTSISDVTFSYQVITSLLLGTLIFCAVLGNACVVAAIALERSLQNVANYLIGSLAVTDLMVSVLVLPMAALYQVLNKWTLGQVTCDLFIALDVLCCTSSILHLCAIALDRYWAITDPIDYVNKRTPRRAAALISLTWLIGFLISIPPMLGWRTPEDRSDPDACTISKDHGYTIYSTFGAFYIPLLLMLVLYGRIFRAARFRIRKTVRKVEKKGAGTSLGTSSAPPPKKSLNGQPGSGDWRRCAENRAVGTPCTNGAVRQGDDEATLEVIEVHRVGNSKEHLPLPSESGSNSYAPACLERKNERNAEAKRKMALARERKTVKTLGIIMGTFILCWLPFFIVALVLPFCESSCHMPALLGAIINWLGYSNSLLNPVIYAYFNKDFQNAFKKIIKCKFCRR

IC50: 38 nM
Structure (SMILES): COc1ccccc1N1CCN(CCC(=O)NC2CCCc3c(OC)cccc32)CC1 (stereo unspecified)
